Test results from PubChem BioAssay AID651821 (The Scripps Research Institute Molecular Screening Center, 2012).
The list shows a part of the results, in another mix than the full data. Activity calls are given as the source filed them.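 How the source made its calls: active means inhibition above the plate cutoff, the mean of all test compounds on that plate plus 3 SD (cut at about 35% in these data); inactive means the rest.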

Experiment: binders of r(CAG) RNA repeats, primary screen, biochemical, fluorescence (AID 651821);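 further: 0% = DMSO alone and 100% = 100 µM mitoxantrone as full dye displacement; higher means more dye released from RNA so lower well fluorescence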
Conditions: r(CAG) RNA repeat, TO-PRO-1 dye displacement fluorescence; at 3 µM; active compounds read high

SMILES | inhibition
CCC(=O)N(c1ccccc1)C1(COC)CCN(CCn2nnn(CC)c2=O)CC1 | inactive: -1.72%
CCC(=O)N(c1ccccc1)C1(COC)CCN(CCc2cccs2)CC1 | inactive: -0.56%
